## Binding of CDR-mutated scFvs to a peptide of the spike HR2 region

Target peptide (SARS-CoV-2 spike, HR2 region): PDVDLGDISGINAS

Parent: Ab-14, a human scFv built as VH, a (GGGGS)3 linker, VL. Only the CDRs of the light chain vary.
VH: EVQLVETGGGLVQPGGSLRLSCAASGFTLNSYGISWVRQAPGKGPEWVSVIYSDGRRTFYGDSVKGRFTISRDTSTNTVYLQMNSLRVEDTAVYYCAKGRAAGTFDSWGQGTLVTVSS
VL: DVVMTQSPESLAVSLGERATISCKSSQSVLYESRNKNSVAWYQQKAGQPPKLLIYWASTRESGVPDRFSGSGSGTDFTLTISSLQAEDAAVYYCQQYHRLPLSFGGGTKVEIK

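The starting antibody came from a phage panning campaign against this peptide. Designed CDR sequences, proposed from the first random library and measured here. Their group label is 14L_En_HC (En: ensemble of fine-tuned language models; HC: hill climbing; a sequence that several methods proposed may carry one label only). The assay is AlphaSeq: two haploid yeast populations carry antibody and antigen on their surface. The frequency of each diploid, read from paired DNA barcodes, reflects how well the two displayed proteins bind. A regression on co-assayed BCL2-family reference pairs converts the normalised counts of each replicate to an apparent Kd. Mating was done six times.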

Each variant is given by its three light chain CDRs, as the data file delimits them; those of the parent are KSSQSVLYESRNKNSVA, WASTRES, QQYHRLPLS. Scale: log10 of Kd in nM, estimated from mating counts; low values are strong binders. "ND" means that the variant was in the library but no mating with the target was seen in that replicate; the authors take this as a sign of poor binding, and no number exists.

CDR-L1	CDR-L2	CDR-L3	replicates, log10 nM	empty controls
KLYQSMGYLSHNKNSIA	DMQRREN	QQYHRLPLS	1.04 0.62 1.37 1.17 1.46 1.13	1 of 18 (2.39)
TISQMWFLESKNKNNVA	EESTRLD	QSYFRLPLS	0.62 0.59 0.67 0.81 0.70 0.85	0 of 18
KISMTYRYESVASNSIA	EMTTRAE	QSYHRLPLS	1.82 1.18 1.06 1.35 1.20 1.37	1 of 18 (2.42)
MISDLTMVGSRNKNSVA	DLSTRGS	QQYHRLPLS	0.06 0.17 -0.07 -0.07 -0.33 0.37	0 of 18
MISDLTMYGMRNKNSVA	DLSTRGS	QQYHRLPLS	0.64 0.64 0.56 0.67 0.46 0.58	1 of 18 (2.21)
MLSDLVKSGSRNTNSVA	DNSTRGS	QQYDRLPLS	ND 2.55 1.88 2.58 2.40 2.34	0 of 18
MIAESSGYQSRNKNSVA	DNSTRED	QCYDRLPLS	ND ND ND ND ND 2.73	1 of 18 (2.96)
KISFQYRYEQLSKNSIA	EAQTRLK	QQYHRLPLE	0.99 0.44 1.12 0.39 0.48 1.09	0 of 18
KLSQVTKSESRNKNSIA	EMVTREV	QQYDRLPLS	0.94 0.80 0.95 0.36 0.77 0.58	2 of 18 (2.21)
KLSLFYRVETRNKNSVA	DNSTRES	QDYDRLPLS	1.20 0.80 1.12 1.68 1.38 1.60	0 of 18
HISPSFMVESKLRNSVA	QTETRVE	QQYDRLPLS	0.78 0.48 0.26 0.53 0.63 0.96	2 of 18 (2.96)
MISDLMLYGSRKNNPIA	NAETREY	QQYHRLPLE	0.52 0.52 0.28 0.38 0.44 0.69	3 of 18 (2.85)
KLLQTVMNETRNKNNVA	HMTTRED	QQYFRLPLS	0.03 0.14 -0.04 -0.11 0.13 -0.06	1 of 18 (2.12)
ILYDSVGTLSRNKNSVA	DNSTREP	QQYDRLPLS	0.68 0.32 0.71 0.66 0.76 0.65	1 of 18 (2.28)
TITQSMLMTSHHMNSVA	HASTREE	QQYHRLPLI	0.57 1.07 0.67 0.41 0.60 0.72	1 of 18 (4.15)
TISGLANYESTNKNSVA	ELTMRGQ	QQYERLPLS	0.49 0.85 0.73 0.79 0.56 1.13	0 of 18
KLPMMYQHTSRNKNNIA	ERSTREE	QQYHHLPLS	0.82 0.59 0.40 0.41 0.66 0.64	0 of 18
IISQVDAYESRAKNSIA	DQSTRGS	QQYDRLPLS	2.07 1.01 1.05 1.79 1.39 1.98	1 of 18 (2.74)
TISQSFHMENQFKNSVA	QASTRES	QCYDRLPLS	ND 2.30 ND 2.64 ND ND	1 of 18 (2.75)
MLSDLVKMGVRNTNSVA	DNSTRGA	QQYDRLPLS	1.61 0.90 2.22 0.96 1.01 1.77	1 of 18 (2.57)
KIGGVTNGISRNKNSVA	EQSRRED	QQYNRLPLS	-0.03 -0.23 0.14 0.02 0.09 -0.08	1 of 18 (1.35)
NLYQSMNFLGRVANSIA	DASTIWD	QQYHRLPLS	0.50 0.30 1.20 1.85 0.77 0.66	0 of 18
MAYGGDMVESVARNSVA	NAETRAD	QDYHRLPLS	0.77 0.37 0.16 0.84 0.42 -0.02	0 of 18
KLSATYRYESENKNSIA	EMTTRES	QCYHRLPLS	ND 3.28 2.41 1.51 ND 2.02	0 of 18
MMSQMFEGLSTSKNPVA	QVSTREE	QQYHRLPLS	1.10 1.17 0.62 0.84 0.54 0.90	0 of 18
KLAQYVGGESRNKSSLA	DNSTRES	QQYHRLPLS	ND ND 2.79 ND ND 1.84	0 of 18
MFSQSVMYGSLYRNSVA	QTSTRES	QQYDRLPLS	0.68 0.66 0.48 0.60 0.79 0.79	1 of 18 (3.93)
HMSQVTMYGYWNKNSVA	QTSTREE	QQYDHLPLS	1.86 1.94 2.12 ND ND 1.91	0 of 18
MISDLTYIGLRNVNSVA	DLSTRGN	QQYDRLPLS	1.14 0.44 0.66 0.64 0.75 0.85	1 of 18 (3.44)
TISQMQFIESKNRNNVA	EMTTREN	QDYDRLPLS	2.10 0.86 0.53 0.99 1.31 0.91	1 of 18 (1.76)
KISQMSGIESITHNSVA	QTSTRES	QQYDRLPLS	0.81 0.36 0.31 0.30 0.38 0.38	3 of 18 (2.54)
TISASTYWESRNKNSVA	QTSTREE	QDYDRLPLS	0.94 1.58 0.71 1.65 0.61 0.91	0 of 18
SIYDATKMESRNKNPIA	DVSTRPS	QQYDRLPLS	0.68 0.87 1.06 0.66 1.05 0.72	1 of 18 (2.10)
KISQVFMMTGKAKNSVA	NAYTRVQ	QQYHRLPLS	0.23 0.33 0.43 0.28 0.35 0.33	0 of 18
KITGMWTFESHNKNSIA	EESTRED	QSYHRLPLS	0.30 0.39 1.01 1.10 0.50 0.74	0 of 18
SLGGVTSYEMQNKNSVA	QMTTRES	QQYHRLPLS	-0.14 0.19 -0.08 -0.10 -0.27 -0.04	0 of 18
HISQSVGMTSRNKNSVA	ENSTREM	QQYDRLPLS	1.47 1.36 1.57 ND 2.75 1.58	0 of 18
QLLMATMSGQYNRNSVA	HAQTRND	QSYHRLPLS	2.08 ND 1.81 1.43 0.73 1.53	0 of 18
TISQSLLMQTSHKNSVA	GEETRYS	QQYHRLPLS	0.49 0.46 0.02 -0.01 0.94 0.39	1 of 18 (1.54)
KLYASTMLESHDKNSIA	DLTTRGN	QQYHRLPLS	0.48 0.46 0.51 0.37 0.76 0.62	2 of 18 (2.79)
KLSQVTHLESRNKNSIA	EMVTREV	QQYDRLPLS	0.35 0.43 0.30 0.25 0.34 0.31	1 of 18 (1.85)

Extract of 5 entries:

| CDR-L1 | CDR-L2 | CDR-L3 | replicates, log10 nM | empty controls |
|---|---|---|---|---|
| MISDLTYIGLRNVNSVA | DLSTRGN | QQYDRLPLS | 1.14 0.44 0.66 0.64 0.75 0.85 | 1 of 18 (3.44) |
| IISQVDAYESRAKNSIA | DQSTRGS | QQYDRLPLS | 2.07 1.01 1.05 1.79 1.39 1.98 | 1 of 18 (2.74) |
| ILYDSVGTLSRNKNSVA | DNSTREP | QQYDRLPLS | 0.68 0.32 0.71 0.66 0.76 0.65 | 1 of 18 (2.28) |
| TISASTYWESRNKNSVA | QTSTREE | QDYDRLPLS | 0.94 1.58 0.71 1.65 0.61 0.91 | 0 of 18 |
| TISQMQFIESKNRNNVA | EMTTREN | QDYDRLPLS | 2.10 0.86 0.53 0.99 1.31 0.91 | 1 of 18 (1.76) |

A sequence measured in both rounds can read differently, since the two assays cover different ranges. Background: pairings of all light chain designs with three empty control strains gave a value in 4% of cases (median 2.64, 5th percentile 1.59). Values in that range, when seen in few replicates, are hard to tell from nonspecific mating. The control count says in how many pairings with the empty strains this scFv gave a signal, with their mean in brackets. The parent sequence was in this pool as ten entries: three were never detected, three once, and four in most replicates, with averages from 0.34 to 2.37. The authors' rule: three or more of the six replicates give a measured affinity, fewer mean a poor binder.

Data: MIT Lincoln Laboratory AlphaSeq set, Li et al. 2023, doi:10.1038/s41467-023-39022-2, as distributed in FLAb.